# Assay results from patent US20090105632A1 (priority 2007, published 2009).
# Details: control fentanyl HCl runs
smiles,measurement,value
CCC(=O)N(c1ccccc1)C1CCN(CCc2ccccc2)CC1,time up to which flux was good before falling quickly (depletion),11 h

# Only a part of the results on these compounds is given; other tests are left out.
